AlphaSeq binding of Ab-95 light chain variants to a spike HR2 peptide

Source: Engelhart et al. 2022 (doi:10.1038/s41597-022-01779-4), MIT Lincoln Laboratory and A-Alpha Bio; data file from the FLAb repository.

The target is the same throughout: PDVDLGDISGINAS, from the HR2 region of SARS-CoV-2 spike.

Each scFv is VH, a 15-residue (Gly4Ser)3 linker, VL, as in the parent Ab-95, and differs from it in the CDRs of the light chain only.
VH: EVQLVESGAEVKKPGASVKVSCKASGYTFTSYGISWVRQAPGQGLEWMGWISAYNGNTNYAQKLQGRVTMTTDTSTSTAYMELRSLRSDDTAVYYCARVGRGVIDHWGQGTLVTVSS
VL: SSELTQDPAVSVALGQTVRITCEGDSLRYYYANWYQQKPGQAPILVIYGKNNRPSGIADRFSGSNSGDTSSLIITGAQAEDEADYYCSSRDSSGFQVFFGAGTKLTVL

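The starting antibody came from a phage panning campaign against this peptide. In library AAYL52, one, two or three CDR residues were substituted; doubles and triples were drawn at random. The scFvs were displayed on barcoded MATa yeast, the peptide on MATalpha yeast. Binding brings cells together so that they mate, and sequencing counts the barcode pairs among the diploids. The ratio of observed to expected reads was calibrated, replicate by replicate, on BCL2-family standards whose Kd was known from biolayer interferometry. There are three technical replicates.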

Variants are written as CDR1, CDR2 and CDR3 of the light chain (limits as in the source). Parent: EGDSLRYYYAN, GKNNRPS, SSRDSSGFQVF. This list gathers variants with a substitution at P54 (VL, numbered from residue 1). Values are apparent Kd, the geometric mean of the replicates that gave a signal; lower means stronger binding. A pair that was not seen in any replicate is written "nd"; this usually means weak binding, but a binder can also be missed. Entries are sorted by rising average, undetected variants last. In this assay the parent's reference entry averaged 200 nM; its copy inside this library read 180 nM.

Variant WGDSLRYYDAN | GKNNRMS | SSRDSSGFQVF gave 27 nM (3 of 3 replicates). Variant EGDSLRYHYAN | GKNNCAS | SSRDSSGFQVF showed 41 nM (3 of 3 replicates). With EGDSLRYYYAN | GKNNRAS | SSLDLSGFQVF the result was 120 nM (3 of 3 replicates). Variant EGDSLRYYYAN | GKNNRDS | ESRDSSGQQVF showed 150 nM (3 of 3 replicates). Variant EGDSLRYYYAN | GKNNRGS | SSRDSSGFQVF showed 240 nM (3 of 3 replicates). With EGDSLRYYYAN | GKNNRSS | SSRDSSGFLVM the result was 500 nM (3 of 3 replicates). For EGDSLMKYYAN | GKNNRNS | SSRDSSGFQVF, the assay gave 530 nM (2 of 3 replicates). Variant KGKSLRYYYAN | GKNNRYS | SSRDSSGFQVF gave 880 nM (3 of 3 replicates). Variant EGDSLRYYYAN | GKNNRQS | SSCDSSGFQKF showed 920 nM (1 of 3 replicates).

Variant EGDSLRYYYAN | GKNNRCS | SSRDSSGFYVF gave 960 nM (3 of 3 replicates). With EIDSLRYYYAV | GKNNRNS | SSRDSSGFQVF the result was 1.1 µM (3 of 3 replicates). Variant MGDSLRYYYAN | GKNNRCS | SSRDSNGFQVF gave 1.2 µM (3 of 3 replicates). Variant EGDSLRYYYAN | GKNNRNS | SERDSSGFYVF showed 1.3 µM (2 of 3 replicates). For EGDSLRYYYAN | GKNNRGS | SSRDSSGIQVF, the assay gave 1.3 µM (3 of 3 replicates). Variant EGDSLRYYYAN | GKNNIIS | SSRDESGFQVF gave 1.3 µM (2 of 3 replicates). Variant EGDYLRYYYAN | GKNNRSL | SSRDSSGFQVF showed 1.8 µM (2 of 3 replicates). Variant EGDSLRYYQAN | GKNNRDS | SSRDSEGFQVF showed 2.2 µM (3 of 3 replicates). With EWDSLRYYYAN | GKNNRAS | SSRDSSGFQGF the result was 3.0 µM (2 of 3 replicates).

Variant EGDWLRYYYAN | GKNNRYS | SSTDSSGFQVF showed 3.3 µM (2 of 3 replicates). Variant ESCSLRYYYAN | GKNNRVS | SSRDSSGFQVF gave 3.4 µM (1 of 3 replicates). For EGDSLRYYYAN | GKNNRTS | SSRDCSGFQVF, the assay gave 4.4 µM (1 of 3 replicates). With EGDSLRYYYAN | GKVNRHS | SMRDSSGFQVF the result was 4.4 µM (1 of 3 replicates). Variant EGDSLRYYYAN | GINNRRS | SSRDSSGFQVF showed 5.0 µM (2 of 3 replicates). With EGDSLRYYYAN | GKNERDS | SSRDSFGFQVF the result was 5.1 µM (2 of 3 replicates). Variant EGDSLCYYYAN | GKNNKNS | SSRDSSGFQVF gave 6.3 µM (3 of 3 replicates). For EGDSLRYYYAN | GKDNRYS | SSRDSSGFCVF, the assay gave 6.6 µM (3 of 3 replicates). For EGDSLRYYYAN | GKENRMS | SSRDWSGFQVF, the assay gave 11 µM (3 of 3 replicates).

Variant EGDSLRYYYAN | MKNNRHS | TSRDSSGFQVF showed 11 µM (2 of 3 replicates). Variant EGDSLRYYYAN | GRNNRIS | SSRDSSGFQVC gave 13 µM (3 of 3 replicates). With EGDSWRYYYAN | GKNNRFS | SSRDSSGFQPF the result was 15 µM (2 of 3 replicates). Variant EGDSLRYYYHN | GKNNRNS | SSRDSSGFQVT gave 16 µM (2 of 3 replicates). Variant EGDSLRYYFAN | GKNNRFS | SSRDSSGFQVW gave 17 µM (2 of 3 replicates). For EGDSNRYYYAN | GKNNRIS | ISRDSSGFQVF, the assay gave 29 µM (3 of 3 replicates). For ETDSLRYYYAN | GKNNRNS | SSRDSYGFQVF, the assay gave 36 µM (1 of 3 replicates). For EYDSLRYYYAM | GKNNRNS | SSRDSSGFQVF, the assay gave 55 µM (3 of 3 replicates). With ELASLRYYYAN | GKNNRSS | SSRDSSGFQVF the result was 59 µM (2 of 3 replicates).

Variant EGDSLRYYYAN | GKNNRDS | SSFDSHGFQVF gave 110 µM (3 of 3 replicates). For EGDKLRYYYAN | GKNNRFS | SSSDSSGFQVF, the assay gave 200 µM (1 of 3 replicates). With EGDSVRYYYAN | GKNNRGS | SSRDSHGFQVF the result was nd (0 of 3 replicates). Variant EGDSLRYVYAA | GKNNRIS | SSRDSSGFQVF gave nd (0 of 3 replicates). For NGDSLRYYYAN | GKNNWDS | SSRDSSGFQVF, the assay gave nd (0 of 3 replicates). Variant EGDSLDYYYAN | GKNNRYS | SSRDSSGPQVF gave nd (0 of 3 replicates). With EGDSLRYYYAN | GKNNRCS | SSRDASGFQDF the result was nd (0 of 3 replicates). For EGDSLRYYYAN | GKLNRAS | SFRDSSGFQVF, the assay gave nd (0 of 3 replicates). Variant EGDSLWYYYAN | GKNNRWS | SSRDSSGFQVV gave nd (0 of 3 replicates).

Top 3 of the variants detected in all replicates, tightest first:

For WGDSLRYYDAN | GKNNRMS | SSRDSSGFQVF, the assay gave 27 nM (3 of 3 replicates).
For EGDSLRYHYAN | GKNNCAS | SSRDSSGFQVF, the assay gave 41 nM (3 of 3 replicates).
For EGDSLRYYYAN | GKNNRAS | SSLDLSGFQVF, the assay gave 120 nM (3 of 3 replicates).

Background: pairings of library AAYL52 with three empty control strains gave a value in 28% of cases (median 8.2 µM, 5th percentile 800 nM). Values in that range, when seen in few replicates, are hard to tell from nonspecific mating.